# Data published in PMC5704011.
# Read-outs that look alike come from different tables or passages of the source.
# Tests used:
# PDGFRβ (Homo sapiens) [1] = molecular target: PDGFRβ (Homo sapiens) (UniProt P09619); experiment: SPR; BIAcore 3000, 25 °C, CM5 chip; receptor immobilised by amine coupling (~200-500 R.U.); ligand injected at 40, 20 and 10 nM in HBS-EP pH 7.4 (10 mM HEPES, 3 mM EDTA, 150 mM NaCl, 0.005% TWEEN-20); angiopoietin-4 reference cell subtracted; global 1:1 Langmuir fit; χ^2-to-Rmax < 1.0 taken as a true interaction
# PDGFRβ (Homo sapiens) [2] = molecular target: PDGFRβ (Homo sapiens) (UniProt P09619); details: cited from earlier work
Kd (PDGFRβ (Homo sapiens) [1]) [nM],Substance,Kd (PDGFRβ (Homo sapiens) [2]) [nM]
67,human recombinant PDGF-DD (from UniProt Q9GZP0 19-370) (ligand),–
–,PDGF-BB (from UniProt P01127),1.6
